According to patent US20260275279A1, “THYROCYTES AND USES THEREOF” (LifeNet Health, priority 2023, published 2026):

Test system: 3D thyrocyte cell culture
Details: 1.0×10^−10 to 1.0×10^−4 M

Cn1cc[nH]c1=S [methimazole, Methimazole]
toxicity of inhibitor concentrations to the cells: not toxic
